# Yeast mating assay B: variants of the scFv Ab-14

Values reported by Li et al. 2023, doi:10.1038/s41467-023-39022-2 (FLAb copy).

All variants were tested on one target, the spike HR2 peptide PDVDLGDISGINAS (SARS-CoV-2).

Ab-14 is the parent antibody, in scFv form: VH, then the linker GGGGSGGGGSGGGGS, then VL. The light chain is unchanged in all variants.
VH: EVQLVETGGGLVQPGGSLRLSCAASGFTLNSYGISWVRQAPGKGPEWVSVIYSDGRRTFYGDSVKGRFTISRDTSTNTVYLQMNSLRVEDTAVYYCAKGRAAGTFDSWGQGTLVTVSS
VL: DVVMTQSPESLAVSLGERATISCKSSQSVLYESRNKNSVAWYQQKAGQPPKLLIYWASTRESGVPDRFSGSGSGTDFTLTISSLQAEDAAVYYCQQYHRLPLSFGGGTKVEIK

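The parent was found by panning a naive human phage display library on the peptide. These sequences belong to a second round, designed from the earlier measurements on random variants of the parent. Several design methods are mixed in this list. The assay is AlphaSeq: two haploid yeast populations carry antibody and antigen on their surface. After mating in shaken culture at 30 °C for 16 h, diploids were selected and their barcode pairs sequenced. Read counts were normalised to the haploid input and turned into Kd by a linear fit to BCL2-family pairs of known affinity, for each replicate. The assay was run in six technical replicates.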

Each variant's VH is given in full.
Values are log10 of the apparent Kd in nM; lower means stronger binding.
The mean shown is taken over the replicates in which the pair was detected.
"nd" means that the variant was in the library but no mating with the target was seen in any replicate; the authors take this as a sign of poor binding, and no number exists.
Values of this round are not directly comparable with the first-round values of the same sequences.
In the paper, a design with two or fewer of six values counts as a poor binder.
Of ten entries with the parent sequence, four were seen in most replicates (averages 0.34 to 2.37), three in one and three in none, so single entries are noisy.
Background: pairings of all heavy chain designs with three empty control strains gave a value in 1% of cases (median 2.08, 5th percentile 0.84). Values in that range, when seen in few replicates, are hard to tell from nonspecific mating.

With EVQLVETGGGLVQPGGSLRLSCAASGFNLSEYGISWVRQAPGKGPEWVSVIYADGMRSEYADNVKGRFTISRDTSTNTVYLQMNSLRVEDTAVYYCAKGHKGNAFIDWGQGTLVTVSS the result was nd (0 of 6 replicates).
With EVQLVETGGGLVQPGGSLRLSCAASGFDLNSYGISWVRQAPGKGPEWVSVIYSDGRRTFYQDSVKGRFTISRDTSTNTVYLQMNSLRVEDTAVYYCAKGEAAGTFDTWGQGTLVTVSS the result was 0.01 (6 of 6 replicates).
With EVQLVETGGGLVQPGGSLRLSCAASGFALNSYGITWVRQAPGKGPEWVSVIYADGRRTFYGDSVAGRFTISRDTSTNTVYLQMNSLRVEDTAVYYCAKGRARGTFDSWGQGTLVTVSS the result was nd (0 of 6 replicates).
With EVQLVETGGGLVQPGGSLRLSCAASGFSLNSYGISWVRQAPGKGPEWVSVIYSDGRRTFYADHVKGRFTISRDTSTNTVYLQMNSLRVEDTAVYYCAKGQTAGTFDSWGQGTLVTVSS the result was 1.21 (6 of 6 replicates).
With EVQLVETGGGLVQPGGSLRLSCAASMFSLNSYGISWVRQAPGKGPEWVSVIYSDGRRTFYADSVKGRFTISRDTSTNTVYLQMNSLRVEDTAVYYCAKGEAAGTFDSWGQGTLVTVSS the result was 1.41 (6 of 6 replicates).
With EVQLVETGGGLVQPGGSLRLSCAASDFTLNSYGISWVRQAPGKGPEWVSVIYSDGRRTFYGDSVKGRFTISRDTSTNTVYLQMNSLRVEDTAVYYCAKGTAAGLFSSWGQGTLVTVSS the result was nd (0 of 6 replicates).
With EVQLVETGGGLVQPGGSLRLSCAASGFDLNEYGISWVRQAPGKGPEWVSVIYADGRRTAYADSVKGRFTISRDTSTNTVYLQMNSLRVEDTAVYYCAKGSEAGTFDMWGQGTLVTVSS the result was -0.31 (6 of 6 replicates).
With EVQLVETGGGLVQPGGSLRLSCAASGFTLDEYGISWVRQAPGKGPEWVSVIYADGQRTFYADSVKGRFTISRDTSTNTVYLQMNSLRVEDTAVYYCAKGNVAGTFDQWGQGTLVTVSS the result was -0.79 (6 of 6 replicates).
With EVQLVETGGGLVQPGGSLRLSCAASGDKLEDYGISWVRQAPGKGPEWVSVIYADGRRRAYVENVKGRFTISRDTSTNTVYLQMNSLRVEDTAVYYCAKGVYAGYFDVWGQGTLVTVSS the result was nd (0 of 6 replicates).
With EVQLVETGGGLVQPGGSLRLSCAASGFSLNEYGISWVRQAPGKGPEWVSVIYSDGKRTFYADSVKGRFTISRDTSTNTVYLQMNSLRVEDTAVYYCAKGRAAGTFDSWGQGTLVTVSS the result was -0.06 (6 of 6 replicates).
With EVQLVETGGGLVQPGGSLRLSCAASGFDLNEYGISWVRQAPGKGPEWVSVIYADGMRTAYIDSVKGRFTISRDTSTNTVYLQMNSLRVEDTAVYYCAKGEVAGTFDLWGQGTLVTVSS the result was -0.31 (6 of 6 replicates).

Further variants, results first:

Result 0.16 (5 of 6 replicates), variant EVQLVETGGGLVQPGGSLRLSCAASGFDLNEYGISWVRQAPGKGPEWVSVIYADGMRTQYIDSVKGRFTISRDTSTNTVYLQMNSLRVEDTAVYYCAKGNAAGTFDMWGQGTLVTVSS.
Result 1.25 (6 of 6 replicates), variant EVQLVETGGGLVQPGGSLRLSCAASGFTLNEYGISWVRQAPGKGPEWVSVIYSDGRRTFYTDSVKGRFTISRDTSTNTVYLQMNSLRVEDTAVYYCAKGRFAGTFDRWGQGTLVTVSS.
Result -0.36 (6 of 6 replicates), variant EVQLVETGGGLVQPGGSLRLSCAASGFDLDEYGISWVRQAPGKGPEWVSVIYADGRRTAYSDSVKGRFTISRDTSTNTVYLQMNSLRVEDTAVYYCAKGENAGTFDIWGQGTLVTVSS.
Result -0.23 (6 of 6 replicates), variant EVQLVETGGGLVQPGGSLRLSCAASGFDLEDYGISWVRQAPGKGPEWVSVIYADGRRTAYVDSVKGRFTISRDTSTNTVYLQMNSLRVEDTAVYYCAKGEVAGTFDVWGQGTLVTVSS.
Result -0.35 (6 of 6 replicates), variant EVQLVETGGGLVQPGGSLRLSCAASGFDLNEYGISWVRQAPGKGPEWVSVIYADGRRTFYVDSVKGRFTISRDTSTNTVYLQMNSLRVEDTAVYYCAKGVNAGTFDSWGQGTLVTVSS.
Result nd (0 of 6 replicates), variant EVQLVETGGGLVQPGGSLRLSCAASGFDLNEYGISWVRQAPGKGPEWVSVIYADGMRTFYADNAKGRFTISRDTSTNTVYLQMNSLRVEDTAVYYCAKGNAGIFAEVWGQGTLVTVSS.
Result 0.62 (6 of 6 replicates), variant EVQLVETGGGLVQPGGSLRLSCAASGFDLNEYGISWVRQAPGKGPEWVSVIYADGQRTAYTDSVKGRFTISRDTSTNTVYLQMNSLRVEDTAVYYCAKGNVAGTFDIWGQGTLVTVSS.
Result -0.42 (6 of 6 replicates), variant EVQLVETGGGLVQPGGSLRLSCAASGFSLNSYGISWVRQAPGKGPEWVSVIYSDGRRTFYSDSVKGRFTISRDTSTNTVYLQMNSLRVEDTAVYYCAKGRVAGTFDQWGQGTLVTVSS.
Result 0.05 (6 of 6 replicates), variant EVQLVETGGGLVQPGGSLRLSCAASGFGLNSYGISWVRQAPGKGPEWVSVIYSDGRRTFYSDAVKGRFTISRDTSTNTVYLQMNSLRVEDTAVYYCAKGKTAGTFDSWGQGTLVTVSS.
Result 0.86 (6 of 6 replicates), variant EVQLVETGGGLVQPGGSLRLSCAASGFTLNEYGISWVRQAPGKGPEWVSVIYSDGRRTFYSDSVKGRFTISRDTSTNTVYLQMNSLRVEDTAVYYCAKGRSAGTFDSWGQGTLVTVSS.
Result 0.32 (6 of 6 replicates), variant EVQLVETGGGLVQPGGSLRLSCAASGFDLNSYGISWVRQAPGKGPEWVSVIYSDGKRTFYKDSVKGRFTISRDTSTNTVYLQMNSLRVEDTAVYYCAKGRTAGTFDSWGQGTLVTVSS.

2 of these entries, quoted again:

| VH | mean log10 Kd (nM) | detected |
|---|---|---|
| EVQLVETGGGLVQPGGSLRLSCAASMFSLNSYGISWVRQAPGKGPEWVSVIYSDGRRTFYADSVKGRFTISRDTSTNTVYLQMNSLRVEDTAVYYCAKGEAAGTFDSWGQGTLVTVSS | 1.41 | 6 of 6 |
| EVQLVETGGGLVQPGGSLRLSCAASGFSLNEYGISWVRQAPGKGPEWVSVIYSDGKRTFYADSVKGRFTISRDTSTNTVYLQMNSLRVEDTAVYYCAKGRAAGTFDSWGQGTLVTVSS | -0.06 | 6 of 6 |